AlphaSeq binding of Ab-14 light chain variants to a spike HR2 peptide

The target is the same throughout: PDVDLGDISGINAS, from the HR2 region of SARS-CoV-2 spike.

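The parent was found by panning a naive human phage display library on the peptide. Designed CDR sequences, proposed from the first random library and measured here. Their group label is 14L_Ctrl (Ctrl: baseline library sampled from a position-specific scoring matrix, with some repeated check sequences). In AlphaSeq, yeast of one mating type display the scFv and yeast of the other type display the target. Binding brings cells together so that they mate, and sequencing counts the barcode pairs among the diploids. Read counts were normalised to the haploid input and turned into Kd by a linear fit to BCL2-family pairs of known affinity, for each replicate. There are six technical replicates.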

Ab-14 is the parent antibody, in scFv form: VH, then three GGGGS repeats, then VL. The heavy chain is unchanged in all variants.
VH: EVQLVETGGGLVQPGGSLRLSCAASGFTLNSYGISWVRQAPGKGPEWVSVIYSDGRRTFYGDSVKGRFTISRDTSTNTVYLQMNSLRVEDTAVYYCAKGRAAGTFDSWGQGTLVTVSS
VL: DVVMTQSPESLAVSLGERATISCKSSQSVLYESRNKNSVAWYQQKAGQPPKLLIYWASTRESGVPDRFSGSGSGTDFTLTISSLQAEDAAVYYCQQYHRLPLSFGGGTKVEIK

Substitutions are numbered in sequence along the VL above, starting at 1 (not Kabat).
Scale: log10 of Kd in nM, estimated from mating counts; low values are strong binders.
An entry "nd" has no value in the source: the pair was not observed among the diploids in that replicate. This suggests poor binding but is not conclusive.
Nonspecific signal, from three strains lacking the peptide, appeared in 4% of pairings of all light chain designs, centred on 2.64 (5% of these signals below 1.59); values are not corrected for it. The control count says in how many pairings with the empty strains this scFv gave a signal, with their mean in brackets.
The range of this assay differs from that of the first round, and the authors advise against merging the two.
The authors averaged sequences with at least three values out of six and counted those with two or fewer as poor binders.

changes,log10 Kd (nM) by replicate,signal with controls
E32A/S62L,nd nd nd nd nd nd,0/18
W56Q/L100W,nd nd nd nd nd nd,0/18
R34T/K36L/S58Y/H98I,nd nd nd nd nd nd,0/18
R34M/W56S/S62E/R99K/S103D,1.97 1.75 2.53 2.28 1.71 2.10,0/18
S25M/Q27F/W56A/R99P,0.52 0.39 0.48 0.44 0.52 0.20,0/18
S25Y/S28G/W56Q/H98N/R99M,0.74 0.76 0.64 0.52 0.65 0.87,2/18 (2.62)
V29E/Y31E,1.82 1.84 2.05 nd nd nd,2/18 (2.03)
S25W/V29L/L30C/A57G,1.97 1.84 nd 2.07 1.64 1.80,1/18 (0.96)
Q27Y/S28G/Y31H/R34V/K36S/W56S,0.16 -0.02 -0.14 -0.27 -0.03 0.09,1/18 (3.11)
K24F/S25Y/V29F/H98C/R99Q,nd nd nd nd nd nd,1/18 (1.61)
K36I/W56K,1.96 1.75 1.36 1.30 1.23 1.39,1/18 (3.35)
V29K/Y31D,nd 1.60 1.51 2.29 1.71 nd,0/18
V29S/L30D/R34H,2.60 1.91 1.12 1.90 2.06 1.35,2/18 (2.42)
Q27P/S28F/L30I/W56H/R99I,1.06 0.44 0.59 0.64 0.57 0.69,2/18 (1.74)
K24Q/L30Q/R34I,nd nd 1.48 1.66 0.25 nd,0/18
S33C/S62N,0.00 0.25 0.18 0.13 -0.03 0.27,1/18 (3.24)
V29W/R34N/A57G/R99W/S103I,nd nd nd nd nd nd,2/18 (1.48)
S25I/Q27S/S33T/N35F/Q96R,1.91 nd nd nd nd nd,0/18
N35E/W56G/S62Y,0.43 0.42 0.44 0.56 0.95 0.80,0/18
S25L/Q27E/E32D/Q95A/R99E,0.93 1.14 1.14 0.89 1.43 1.26,2/18 (2.88)
S25Q/V29L/W56K/Q95N,nd nd nd nd nd 2.26,0/18
R34T/K36S/W56Q/R99V,1.18 0.40 1.26 1.08 0.86 0.83,1/18 (2.31)
S26I/V29N/R34N/S62I/L102V,nd nd nd nd nd nd,0/18
Y31K/W56S/L100A,1.22 1.36 1.16 1.00 2.05 1.16,3/18 (1.98)
Q27F/L30R/S62Y,nd nd 2.16 nd 2.83 nd,2/18 (1.85)
S25C/W56Q/Q95C,1.83 0.78 0.77 0.73 0.68 1.37,1/18 (1.52)
S26N/H98S,1.78 nd nd nd nd nd,0/18
S26M/Q27P/W56T/A57D,nd nd nd nd nd nd,0/18
E32Q/S38G/W56K/Y97D,nd nd nd nd nd nd,0/18
W56S/S103Y,1.40 0.71 0.89 0.92 0.91 0.94,0/18
V29C/R34P/S58T/Q96C,nd nd nd nd nd nd,0/18
Q27E,1.27 0.93 0.52 0.67 1.21 0.97,0/18

Again, the first 2 entries without any signal:

| changes | log10 Kd (nM) by replicate | signal with controls |
|---|---|---|
| E32A/S62L | nd nd nd nd nd nd | 0/18 |
| W56Q/L100W | nd nd nd nd nd nd | 0/18 |

Values reported by Li et al. 2023, doi:10.1038/s41467-023-39022-2 (FLAb copy).